{"source": "patent US20060222647A1", "about": "“Methods and compositions for modulating the activity of PDE5” (priority 1993, published 2006)", "target": "expressed bovine cGB-PDE cDNA protein product (Bos taurus, UniProt Q28156)", "experiment": "cGMP phosphodiesterase activity of extracts of COS cells transfected with bovine cGB-PDE, in presence of PDE inhibitors", "format": "biochemical", "data": [{"compound": "OCCN(CCO)c1nc(N2CCCCC2)c2nc(N(CCO)CCO)nc(N3CCCCC3)c2n1", "note": "[dipyridamole]", "values": [{"measurement": "IC50", "result": 3.5, "unit": "µM"}]}]}
